For the experiment, the species on record is Mus musculus. The experiment in a line: Protective index, ratio of TD50 for neurotoxicity in CF1 albino mouse to ED50 for inhibition of 6Hz electric shock-induced seizures in CF1 albino mouse. Format: functional.

For `CC[C@@H](C(N)=O)N1CCCC1=O` [LEVETIRACETAM], the PI is >26.
